As usually defined, the IC50 is the concentration that inhibits the measured activity by half.

The chains behind the UniProt entries cited, without tags or fusion partners. Where a name states a change or a piece, a line headed by the entry shows the natural chain unless it says otherwise.
UniProt Q9Y233: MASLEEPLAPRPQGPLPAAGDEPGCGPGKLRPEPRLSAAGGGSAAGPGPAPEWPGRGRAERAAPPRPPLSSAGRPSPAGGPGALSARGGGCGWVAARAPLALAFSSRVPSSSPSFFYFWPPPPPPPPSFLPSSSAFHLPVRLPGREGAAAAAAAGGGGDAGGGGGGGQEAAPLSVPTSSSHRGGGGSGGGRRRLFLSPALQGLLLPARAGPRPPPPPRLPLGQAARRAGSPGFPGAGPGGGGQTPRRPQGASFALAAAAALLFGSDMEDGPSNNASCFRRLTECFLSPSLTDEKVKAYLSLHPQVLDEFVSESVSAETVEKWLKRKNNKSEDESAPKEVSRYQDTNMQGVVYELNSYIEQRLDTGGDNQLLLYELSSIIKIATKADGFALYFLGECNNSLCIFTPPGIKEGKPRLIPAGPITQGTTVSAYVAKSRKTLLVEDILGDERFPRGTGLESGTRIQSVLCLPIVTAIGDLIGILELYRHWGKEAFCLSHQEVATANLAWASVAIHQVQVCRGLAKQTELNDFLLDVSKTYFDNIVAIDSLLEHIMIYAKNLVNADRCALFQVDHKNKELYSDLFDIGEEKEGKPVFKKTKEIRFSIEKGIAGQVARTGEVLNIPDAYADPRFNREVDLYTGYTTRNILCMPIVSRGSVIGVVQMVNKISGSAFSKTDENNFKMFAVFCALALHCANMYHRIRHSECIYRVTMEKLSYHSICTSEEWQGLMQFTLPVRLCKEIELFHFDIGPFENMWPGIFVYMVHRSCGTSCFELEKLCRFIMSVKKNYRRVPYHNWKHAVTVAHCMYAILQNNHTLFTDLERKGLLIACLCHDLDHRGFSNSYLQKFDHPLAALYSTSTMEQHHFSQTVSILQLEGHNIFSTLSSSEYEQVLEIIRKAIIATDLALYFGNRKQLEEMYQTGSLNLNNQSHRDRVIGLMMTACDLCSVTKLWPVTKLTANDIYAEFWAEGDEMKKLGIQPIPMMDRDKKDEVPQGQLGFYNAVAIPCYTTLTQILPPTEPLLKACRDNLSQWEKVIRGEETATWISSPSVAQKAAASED

The target of the assay is cAMP and cAMP-inhibited cGMP 3',5'-cyclic phosphodiesterase 10A (Homo sapiens, UniProt Q9Y233).

As to `CCNC(=O)c1ccc2nc(C)c3nnc(-c4ccccc4Cl)n3c2c1`, 21 nM corresponded to half-maximal inhibition (IC50).

`CCCCOc1ccc(Cl)c(-c2nnc3c(C)nc4ccc(CN5CCOCC5)cc4n23)c1` displayed an IC50 of 1620 nM.
